Results published in article PMC11151825 (RSC Chemical Biology, 2024).
pEC50: −log10 of the molar value.

Protein sequences, listed by entry. Tags and fused reporters are not part of them. Lines headed by an entry give the natural chain unless they say otherwise; changes in a name come on top.
UniProt P30874: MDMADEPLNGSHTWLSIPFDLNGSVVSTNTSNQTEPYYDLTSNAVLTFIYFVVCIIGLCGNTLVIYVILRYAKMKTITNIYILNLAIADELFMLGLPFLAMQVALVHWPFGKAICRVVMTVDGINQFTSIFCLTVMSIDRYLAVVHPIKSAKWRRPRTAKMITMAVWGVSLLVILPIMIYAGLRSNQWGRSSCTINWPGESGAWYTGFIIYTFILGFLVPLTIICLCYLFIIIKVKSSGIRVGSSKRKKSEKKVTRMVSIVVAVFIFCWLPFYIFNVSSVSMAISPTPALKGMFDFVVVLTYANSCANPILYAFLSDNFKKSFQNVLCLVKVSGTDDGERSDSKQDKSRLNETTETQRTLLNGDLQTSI

Molecular target: somatostatin receptor 2 (SST2R) (Homo sapiens, UniProt P30874)
Test: PRESTO-Tango assay on cells expressing SST2R

**Q.** With `CC(C)[C@@H]1NC(=O)[C@@H]2CSSC[C@@H]3NC(=O)[C@H]([C@@H](C)O)NC(=O)[C@@H]4CSSC[C@H](NC(=O)[C@H](C(C)C)NC(=O)[C@H]([C@@H](C)O)NC(=O)[C@@H]5CSSC[C@H](NC(=O)[C@@H](Cc6ccccc6)NC(=O)[C@H]([C@@H](C)O)NC(=O)[C@H](CSSC[C@H](NC(=O)[C@H]([C@@H](C)O)NC(=O)CNC(=O)CNC1=O)C(=O)N[C@@H](CC(N)=O)C(=O)N[C@@H]([C@@H](C)O)C(=O)N1CCC[C@H]1C(=O)NCC(=O)N4)NC(=O)[C@H](C(C)C)NC(=O)[C@@H]1CCCN1C(=O)[C@H](Cc1c[nH]c4ccccc14)NC(=O)[C@H](CO)NC3=O)C(=O)N[C@@H](Cc1ccccc1)C(=O)N[C@H](Cc1c[nH]c3ccccc13)C(=O)N[C@@H](CCCCN)C(=O)N[C@@H]([C@@H](C)O)C(=O)N5)C(=O)NCC(=O)N[C@@H](CCC(N)=O)C(=O)N[C@@H]([C@@H](C)O)C(=O)N2` as the compound, how does the “Emax compared to octreotide” value (HTLA cells transfected with SST2R, 24 h stimulation, mean ± SEM, n=3) read?
**A.** Its value is 82.1 ± 14.2%.

**Q.** What about the pEC50 (read-out: EC50 (agonist activity), HTLA cells transfected with SST2R, 24 h stimulation, luminescence, mean ± SEM, n=3) of the same compound?
**A.** The pEC50 was 5.82.
